The text below walks through data of ChEMBL document CHEMBL3351323, “Exploitation of cholane scaffold for the discovery of potent and selective farnesoid X receptor (FXR) and G-protein coupled bile acid receptor 1 (GP-BAR1) ligands” (J Med Chem, 2014).

Active and inactive are the calls of the source. No cut-off for these calls is given here.

Assay [1] has as its target T1, G-protein coupled bile acid receptor 1 (Homo sapiens) (UniProt Q8TDU6).
T1 sequence (whole entry): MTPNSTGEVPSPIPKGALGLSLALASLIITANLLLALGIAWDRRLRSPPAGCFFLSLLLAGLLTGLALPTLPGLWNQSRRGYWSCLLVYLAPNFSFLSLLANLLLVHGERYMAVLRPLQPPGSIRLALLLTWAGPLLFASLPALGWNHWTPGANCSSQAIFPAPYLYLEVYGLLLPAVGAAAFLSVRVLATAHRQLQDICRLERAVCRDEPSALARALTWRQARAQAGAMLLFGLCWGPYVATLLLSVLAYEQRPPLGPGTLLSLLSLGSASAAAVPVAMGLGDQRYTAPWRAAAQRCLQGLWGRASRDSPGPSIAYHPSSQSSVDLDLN
Nature of the assay: Agonist activity at GP-BAR1 in human THP1 cells assessed as increase in cAMP level at 10 uM by enzyme immunoassay. Format: functional, cell-based. Particulars: THP-1. An outline of the steps:
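THP-1 monocytes serum-starved overnight, then stimulated 30 min at 10 μM, with forskolin 10 μM as reference. cAMP measured by direct cAMP enzyme immunoassay. Three experiments, mean ± SE.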

In assay [2] the target is T2, Bile acid receptor (Homo sapiens) (UniProt Q96RI1).
T2 sequence (whole entry): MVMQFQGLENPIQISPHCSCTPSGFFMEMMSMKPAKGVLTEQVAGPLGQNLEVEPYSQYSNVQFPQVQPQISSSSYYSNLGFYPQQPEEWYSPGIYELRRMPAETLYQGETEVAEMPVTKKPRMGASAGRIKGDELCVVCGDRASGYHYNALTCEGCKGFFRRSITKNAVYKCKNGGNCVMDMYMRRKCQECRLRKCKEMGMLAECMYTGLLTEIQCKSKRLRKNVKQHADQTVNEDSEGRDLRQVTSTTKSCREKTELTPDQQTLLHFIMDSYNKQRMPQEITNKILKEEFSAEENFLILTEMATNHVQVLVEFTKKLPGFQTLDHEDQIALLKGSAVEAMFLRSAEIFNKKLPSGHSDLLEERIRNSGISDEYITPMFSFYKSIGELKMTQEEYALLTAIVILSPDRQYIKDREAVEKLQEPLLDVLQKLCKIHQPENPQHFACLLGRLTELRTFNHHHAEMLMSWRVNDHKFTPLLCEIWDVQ
Kind of assay: Agonist activity at FXR in human HepG2 cells assessed as increase in BSEP mRNA expression at 10 uM by RT-PCR method. The assay is classed as cell-based. The procedure, abridged:
(§1)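 HepG2 cells treated at 10 μM. TRIzol RNA was DNase-treated and reverse transcribed with random primers, then SYBR real-time PCR run in triplicate (40 cycles, 95 °C/60 °C). Values normalized to GAPDH and expressed relative to untreated cells set to 1.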

For assay [3], the target named is T2, Bile acid receptor (Homo sapiens). Kind of assay: Agonist activity at FXR in human HepG2 cells assessed as increase in SHP mRNA expression at 10 uM by RT-PCR method. The assay is classed as cell-based. The procedure, abridged:
as §1

For assay [4] the target is unchanged. Nature of the assay: Agonist activity at FXR in human HepG2 cells assessed as increase in OSTalpha mRNA expression at 10 uM by RT-PCR method. The assay is classed as cell-based. An outline of the steps:
as §1

Consider `C[C@H](CCCOS(=O)(=O)[O-])[C@H]1CC[C@H]2[C@@H]3[C@H](O)C[C@@H]4CCCC[C@]4(C)[C@H]3CC[C@]12C.[Na+]`, for which the outcome in assay [1] was inactive.

Consider `CC[C@@H]1[C@H](O)[C@@H]2[C@H](CC[C@]3(C)[C@@H]([C@H](C)CCCO)CC[C@@H]23)[C@@]2(C)CC[C@@H](O)C[C@@H]12`, for which the result in assay [2], in assay [3] and in assay [4] was inactive.
